The text below walks through data of patent US20050136444A1 (priority 2003, published 2005).

Amino acid sequences for entries named in this document (tags omitted). Residues count along the entry.
UniProt Q9Y5X5, 103-522: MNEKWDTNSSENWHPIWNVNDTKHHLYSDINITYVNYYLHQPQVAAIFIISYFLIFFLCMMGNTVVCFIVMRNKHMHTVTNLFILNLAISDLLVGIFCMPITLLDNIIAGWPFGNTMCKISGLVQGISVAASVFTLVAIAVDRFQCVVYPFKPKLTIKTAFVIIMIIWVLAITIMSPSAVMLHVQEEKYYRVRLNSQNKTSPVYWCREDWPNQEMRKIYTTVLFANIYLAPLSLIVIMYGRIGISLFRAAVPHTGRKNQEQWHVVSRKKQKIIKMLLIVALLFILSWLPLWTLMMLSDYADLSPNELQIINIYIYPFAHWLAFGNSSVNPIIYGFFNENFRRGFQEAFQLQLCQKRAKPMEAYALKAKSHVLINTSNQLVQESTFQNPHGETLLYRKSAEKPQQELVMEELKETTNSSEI

The target of one assay is T1, NPFF2 (Homo sapiens, UniProt Q9Y5X5).
T1 construct: expressed in transfected cells; host or cells: NIH3T3
In words: Receptor Selection and Amplification Technology (R-SAT) functional assay, NPFF2. The format is cell-based. The note with it: Table 1, NA = No activity detectable at the highest dose tested (20 μM), read-out: NPFF2 pEC50 (converted).

In another assay the target is T2, NPFF2b (Homo sapiens, UniProt Q9Y5X5).
T2 construct: expressed in transfected cells; host or cells: HEK-T
Briefly: cAMP assay in transiently transfected HEK-T cells, NPFF2. In kind it is cell-based. The settings on record: HEK-T cell, cAMP data, Table 2, read-out: NPFF2b % Efficacy Mean. How it is done: An assay was established for measuring cAMP in transiently transfected cells that takes advantage of the fact that most cells that are transfected with one gene, can be simultaneously transfected with other genes. Thus, the NPFF1 and NPFF2 receptors were transfected along with a Gs-coupled receptor (EP2) at a ratio of 5:1. In un-transfected HEK-T cells there is no response to PGE2 (agonist for EP2) at doses as high 10 μM. […] Improvement was also detected in the sensitivity of the assay in some cases when cells are co-transfected with AC5 at ½-⅕ of the amount of DNA of the Gi-coupled receptor studied.
This set up was routinely used for the transfection of HEK-T cells with NPFF1 and NPFF2 receptors. After 48 hours the cAMP assay was set up using DiscoveRx assay protocol with transfected cells in suspension in the presence of varying concentrations of the NPFF ligands and 300 nM of […] in white bottom plates. Cells were incubated for 15 minutes at 37° C. At the end of incubation, cells were lysed and the remainder of the assay performed as per DiscoveRx protocol.
For antagonist assays, the cells were pre-incubated with antagonists for 15 minutes at 37° C. prior to the addition of agonist and then PGE2 in order. Cells were incubated for another 15 minutes at 37° C. following which the cells were lysed and processed as per kit protocol.

Structures can show the parent of a compound that is named as a salt.

Regarding `NC(N)=NN=Cc1ccc(Cl)c(C(F)(F)F)c1` [Compound 2035, 1-[4-Chloro-3-(trifluoromethyl)benzylideneamino]guanidine Hydrochloride], at NPFF2, the EC50 is 0.631 µM. For `Cl.N=C(N)N/N=C/c1ccc(Br)c(Br)c1` [Compound 3093, 1-(3,4-Dibromobenzylideneamino)guanidine Hydrochloride], at NPFF2b, the Emax was 78%.
